The results in this text go back to patent publication US7081460B2, “Quinazoline and quinazoline-like compounds for the treatment of integrin-mediated disorders” (Ortho-McNeil Pharmaceutical, Inc., priority 2001, dated 2006).

Protein sequences, listed by entry. Tags and fused reporters are not part of them. Residues count along the entry.
UniProt P05106, 27-788 limits assumed: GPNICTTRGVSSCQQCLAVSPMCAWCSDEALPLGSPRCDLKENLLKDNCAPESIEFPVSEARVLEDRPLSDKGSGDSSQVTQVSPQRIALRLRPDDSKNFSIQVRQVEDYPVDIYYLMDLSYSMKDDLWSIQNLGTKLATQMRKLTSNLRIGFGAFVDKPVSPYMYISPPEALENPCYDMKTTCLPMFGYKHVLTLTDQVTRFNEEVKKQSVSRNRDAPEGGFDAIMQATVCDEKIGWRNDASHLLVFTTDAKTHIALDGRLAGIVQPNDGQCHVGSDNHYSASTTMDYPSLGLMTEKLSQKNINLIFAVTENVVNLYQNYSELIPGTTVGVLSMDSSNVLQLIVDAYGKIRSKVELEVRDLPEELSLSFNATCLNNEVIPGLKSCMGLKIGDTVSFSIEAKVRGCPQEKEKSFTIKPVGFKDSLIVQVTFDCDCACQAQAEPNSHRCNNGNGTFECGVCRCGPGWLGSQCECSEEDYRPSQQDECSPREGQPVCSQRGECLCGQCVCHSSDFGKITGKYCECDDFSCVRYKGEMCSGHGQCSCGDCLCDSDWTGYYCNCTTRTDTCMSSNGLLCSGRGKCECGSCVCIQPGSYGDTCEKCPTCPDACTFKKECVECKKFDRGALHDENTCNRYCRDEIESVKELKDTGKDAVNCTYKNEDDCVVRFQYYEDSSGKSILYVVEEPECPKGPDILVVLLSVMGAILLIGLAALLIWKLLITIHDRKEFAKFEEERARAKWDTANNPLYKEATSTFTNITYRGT
UniProt P08514, 32-887 limits assumed: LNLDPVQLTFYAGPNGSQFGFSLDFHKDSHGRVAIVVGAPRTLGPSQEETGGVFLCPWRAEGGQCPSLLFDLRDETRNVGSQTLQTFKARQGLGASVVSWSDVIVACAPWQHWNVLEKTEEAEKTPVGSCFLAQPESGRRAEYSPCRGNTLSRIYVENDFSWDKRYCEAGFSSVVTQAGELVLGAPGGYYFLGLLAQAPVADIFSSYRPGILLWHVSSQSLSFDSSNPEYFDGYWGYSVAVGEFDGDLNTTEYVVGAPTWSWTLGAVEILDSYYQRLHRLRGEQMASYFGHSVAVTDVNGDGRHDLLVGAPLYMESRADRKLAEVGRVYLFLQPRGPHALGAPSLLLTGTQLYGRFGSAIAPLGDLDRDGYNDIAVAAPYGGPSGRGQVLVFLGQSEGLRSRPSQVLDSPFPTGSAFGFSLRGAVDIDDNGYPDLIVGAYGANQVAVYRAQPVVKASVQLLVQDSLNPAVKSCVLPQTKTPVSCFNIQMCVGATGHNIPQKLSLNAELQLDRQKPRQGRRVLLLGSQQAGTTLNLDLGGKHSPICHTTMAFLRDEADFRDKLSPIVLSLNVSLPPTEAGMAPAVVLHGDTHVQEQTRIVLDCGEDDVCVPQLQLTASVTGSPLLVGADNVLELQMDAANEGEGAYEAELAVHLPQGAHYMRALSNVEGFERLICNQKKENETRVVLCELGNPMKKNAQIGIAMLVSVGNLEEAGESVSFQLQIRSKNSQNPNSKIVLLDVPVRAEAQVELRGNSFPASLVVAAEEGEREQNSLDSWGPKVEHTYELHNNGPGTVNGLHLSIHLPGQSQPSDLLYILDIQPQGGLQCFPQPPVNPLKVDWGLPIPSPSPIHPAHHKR
UniProt P08514, 891-1039 partner limits assumed: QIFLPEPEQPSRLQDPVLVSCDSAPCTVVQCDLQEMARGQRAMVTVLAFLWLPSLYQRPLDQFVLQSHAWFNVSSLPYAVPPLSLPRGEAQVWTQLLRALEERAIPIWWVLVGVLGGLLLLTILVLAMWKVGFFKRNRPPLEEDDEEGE
UniProt P06756, 31-889 limits assumed: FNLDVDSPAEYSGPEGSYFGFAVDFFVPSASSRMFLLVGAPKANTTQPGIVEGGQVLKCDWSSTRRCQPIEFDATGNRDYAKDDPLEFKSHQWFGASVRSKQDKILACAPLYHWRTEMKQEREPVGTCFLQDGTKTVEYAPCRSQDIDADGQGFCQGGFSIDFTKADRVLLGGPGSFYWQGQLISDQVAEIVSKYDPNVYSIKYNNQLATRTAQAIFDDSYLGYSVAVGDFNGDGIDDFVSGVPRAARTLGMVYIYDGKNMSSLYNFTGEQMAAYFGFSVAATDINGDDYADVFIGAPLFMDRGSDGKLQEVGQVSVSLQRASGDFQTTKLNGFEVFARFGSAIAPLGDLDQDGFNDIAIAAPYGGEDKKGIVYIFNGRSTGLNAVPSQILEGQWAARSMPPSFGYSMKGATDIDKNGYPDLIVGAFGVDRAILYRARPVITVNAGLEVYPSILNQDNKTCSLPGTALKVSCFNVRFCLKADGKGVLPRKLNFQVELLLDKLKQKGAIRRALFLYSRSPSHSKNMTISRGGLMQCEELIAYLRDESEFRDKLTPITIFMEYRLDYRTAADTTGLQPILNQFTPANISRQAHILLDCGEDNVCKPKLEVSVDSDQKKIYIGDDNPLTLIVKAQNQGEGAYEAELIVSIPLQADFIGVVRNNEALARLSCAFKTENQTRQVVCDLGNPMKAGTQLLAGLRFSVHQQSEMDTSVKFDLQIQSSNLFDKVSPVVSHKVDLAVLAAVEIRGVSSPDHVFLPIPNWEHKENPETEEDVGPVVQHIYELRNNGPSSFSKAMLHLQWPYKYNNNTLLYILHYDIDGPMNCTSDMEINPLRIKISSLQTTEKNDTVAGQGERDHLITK
UniProt P06756, 891-1048 partner limits assumed: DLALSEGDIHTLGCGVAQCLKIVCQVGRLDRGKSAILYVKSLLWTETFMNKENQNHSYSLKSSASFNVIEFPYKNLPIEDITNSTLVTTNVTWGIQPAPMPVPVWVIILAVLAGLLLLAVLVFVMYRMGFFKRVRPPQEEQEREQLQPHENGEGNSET

The target of assay [1] is GPIIb/IIIa (Homo sapiens, UniProt P05106+P08514). The assay is described as follows: In vitro solid phase purified glycoprotein IIb/IIIa binding assay (biotinylated fibrinogen). As to conditions: read-out: GPIIb/IIIa Binding IC50, RGD-affinity purified GPIIb/IIIa, tested form: Na salt.
In assay [2] the target is Human αvβ3 (Homo sapiens, UniProt P05106+P06756). The experiment in a line: In vitro solid phase purified αvβ3 binding assay (vitronectin/αvβ3). As to conditions: read-out: αvβ3 Binding IC50; isolated human αvβ3, 5 nM vitronectin; tested form: Na salt.

`Cc1c(C)c(C)c(S(=O)(=O)N[C@@H](Cc2nc3ccc(/C=C/CNC4=NCCN4)cc3c(=O)[nH]2)C(=O)O)c(C)c1C`: the IC50 in assay [1] stood at 29 nM; in assay [2], 3.4 nM.
